The nature of this assay: superoxide lowering in aged yeast cells, confirmation, cherry picked compounds (AID 434994).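 Further: cells aged with compound for 7 days at 30 degrees C before staining; 100% equals mean DHE fluorescence of all compound wells on the plate.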 The settings on record: S. cerevisiae aging, superoxide DHE fluorescence; at 10 µM; stronger effect = lower value.

Our source for the superoxide response (% of plate) values is PubChem BioAssay AID434994 (NMMLSC, 2010).

The structures appear in SMILES notation. Only a part is listed here, and it is no random draw. Some of these compounds have results that are not shown, active ones among them. Active and inactive are the calls of the source.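 How the source made its calls: active means superoxide signal below 65% of the plate average of sample wells; inactive means the rest.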

Turning to `COc1cc(C(=O)NCC2(N(C)C)CCCCC2)c([N+](=O)[O-])cc1OC`, the superoxide response (% of plate) is inactive: 95.7%.
